Measurements from patent US6333313A, “Clinical use of oxytocin alone or in combination to treat bone disorders” (Board of Regents, The University of Texas System, priority 1999, dated 2001).

How the values were obtained:
Format in all cases: cell-based
Conditions in all cases: 100 nM OTA, 10 nM OT
OTR [1] = target: T1, OTR (Homo sapiens, UniProt P30559); assay: Intracellular calcium levels, differentiated osteoblastic cells; design: Undifferentiated or differentiated human trabecular bone cells with osteogenic capacity in primary culture express oxytocin receptors (OTRs); endogenous in cells; host or cells: primary human osteoblastic cells from rib trabecular bone explants (undifferentiated, or differentiated in mineralizing medium)
T1 sequence (P30559 1-389): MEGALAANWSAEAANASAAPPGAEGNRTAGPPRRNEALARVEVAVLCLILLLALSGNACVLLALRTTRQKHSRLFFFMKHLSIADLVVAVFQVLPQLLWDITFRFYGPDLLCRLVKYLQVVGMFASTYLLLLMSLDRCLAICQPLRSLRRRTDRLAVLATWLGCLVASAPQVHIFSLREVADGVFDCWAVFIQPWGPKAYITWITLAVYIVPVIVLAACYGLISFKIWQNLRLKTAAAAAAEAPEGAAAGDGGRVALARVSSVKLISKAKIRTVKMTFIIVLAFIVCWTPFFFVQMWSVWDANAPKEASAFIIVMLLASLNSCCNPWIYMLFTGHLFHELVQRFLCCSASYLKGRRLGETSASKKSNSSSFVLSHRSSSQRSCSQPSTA
Procedure: (§1) FIG. 3A, FIG. 3B and FIG. 3C Intracellular calcium transients after 10 nM oxytocin treatment. (FIG. 3A.) Undifferentiated osteoblastic cells; (FIG. 3B.) differentiated osteoblastic cells; and (FIG. 3C.) Saos-2 cells. Cells were incubated at 37C and treated in the following manner; 100 nM OTA for 1 min, […], wash cells 3 times to remove bound antagonist, 10 min recovery, and then 10 nM OT treatment.
(§2) Cell Culture Conditions: Human osteosarcoma cells (Saos-2) cells were obtained from the ATCC (Rockville, Md.). Human osteoblasts (Cheng et al., 1994; Civitelli et al., 1993) were prepared from explants of cultured rib trabecular. These cells were grown in mineralizing media consisting of DMEM supplemented with 10% fetal bovine serum (FBS), 2% penicillin/streptomycin, dexamethasone (100 nM), ascorbate (50 μg/ml, and β3-glycerophosphate (10 μg/ml) in a humidified tissue culture incubator at 37C under an atmosphere of 5% CO2 and 95% air. These conditions accelerate the osteoblastic modulation of undifferentiated human trabecular bone cells and the production of osteogenic mineralizeable collagen matrix (Cheng et al., Civitelli et al., 1993). To retain undifferentiated osteoblastic phenotype, cells were cultured in the absence of dexamethasone, ascorbate, and β-glycerophosphate. […]

OTR [2] = target: T1, OTR; assay: Intracellular calcium levels, undifferentiated osteoblastic cells; design: Undifferentiated or differentiated human trabecular bone cells with osteogenic capacity in primary culture express oxytocin receptors (OTRs); endogenous in cells; host or cells: primary human osteoblastic cells from rib trabecular bone explants (undifferentiated, or differentiated in mineralizing medium)
Procedure: as §1, §2

OTR [3] = target: T1, OTR; assay: Intracellular calcium levels, Saos-2 cells
Procedure: as §1, §2

Measured: block of OT induced rise in [Ca2+]i

[d(CH2)5, Tyr(Me)^2, Thr^4, Tyr-NH2^9 ] OVT [Oxytocin antagonist]
completely blocked: all assays above
